This data set is described as follows: Metabolic stability in human liver microsomes assessed as half-life at 1 uM incubated for 60 mins in presence of NADPH by LC-MS/MS analysis. It is filed as ADME, Microsome. A digest of the protocol: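 Human liver microsomes were used at a final 0.5 mg protein/mL, incubated 60 min with an NADPH regenerating system. The no-cofactor arm replaced NADPH with buffer. T1/2 came from linear regression of the kinetic data. CLint(mic) = (0.693/T1/2)/mg microsomal protein per mL. CLint(liver) was scaled by mg microsomal protein/g liver and g liver/kg body weight.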
Background: Liver microsomes are a subcellular fraction often used to study metabolism.

As to `O=C(O)Cc1ccccc1Nc1c(Cl)cccc1Cl` [DICLOFENAC], the half-life (as a rule, how long it takes for the measured level to halve) at 1 µM was 4.5 min.

These data come from ChEMBL document CHEMBL5344428, “Discovery, Crystallographic Studies, and Mechanistic Investigations of Novel Phenylalanine Derivatives Bearing a Quinazolin-4-one Scaffold as Potent HIV Capsid Modulators” (J Med Chem, 2023).
